Source: ChEMBL document CHEMBL4813913, “In vitro identification of imidazo[1,2-a]pyrazine-based antileishmanial agents and evaluation of L. major casein kinase 1 inhibition” (Eur J Med Chem, 2021)

Experiments:
[1] = Selectivity index, ratio of IC50 for recombinant human CK1 epsilon expressed in baculovirus infected Sf9 cells to IC50 for recombinant Leishmania major CK1.2 expressed in bacterial expression system by ADP-Glo assay
[2] = Selectivity index, ratio of IC50 for recombinant human CK1 epsilon expressed in baculovirus infected Sf9 cells to IC50 for recombinant Leishmania major CK1.2 expressed in bacterial expression system by radiometric assay

Row | SMILES | Ratio IC50 [1] | Ratio IC50 [2]
1 | CN(C)c1nccn2c(-c3ccc4[nH]ncc4c3)c(-c3ccc(F)cc3)nc12 | 1.1 | –
2 | CSc1nccc(-c2c(-c3ccccc3)nc3c(Cl)nccn23)n1 | – | 0.6
3 | CN(C)c1nccn2c(-c3ccncc3)c(-c3ccc(F)cc3)nc12 | 1.3 | –
4 | CSc1nccc(-c2c(-c3ccc(F)cc3)nc3c(N)nccn23)n1 | – | 0.3
5 | CN(C)c1nccn2c(-c3ccnc(N)n3)c(-c3ccc(F)cc3)nc12 | – | 3.8
6 | CN(C)c1nccn2c(-c3ccnc(N)n3)c(-c3ccccc3)nc12 | – | 30
7 | CSc1nccc(-c2c(-c3ccc(F)cc3)nc3c(N(C)C)nccn23)n1 | – | > 10
8 | CSc1nccc(-c2c(-c3ccccc3)nc3c(N(C)C)nccn23)n1 | – | > 2.8
9 | Nc1nccc(-c2c(-c3ccc(F)cc3)nc3c(N)nccn23)n1 | – | 5
